Laboratory results reported in ChEMBL document CHEMBL1141452, “Advances in development of dopaminergic aporphinoids” (J Med Chem, 2007).

Amino acid sequences for entries named in this document (tags omitted).
UniProt P61169, whole entry: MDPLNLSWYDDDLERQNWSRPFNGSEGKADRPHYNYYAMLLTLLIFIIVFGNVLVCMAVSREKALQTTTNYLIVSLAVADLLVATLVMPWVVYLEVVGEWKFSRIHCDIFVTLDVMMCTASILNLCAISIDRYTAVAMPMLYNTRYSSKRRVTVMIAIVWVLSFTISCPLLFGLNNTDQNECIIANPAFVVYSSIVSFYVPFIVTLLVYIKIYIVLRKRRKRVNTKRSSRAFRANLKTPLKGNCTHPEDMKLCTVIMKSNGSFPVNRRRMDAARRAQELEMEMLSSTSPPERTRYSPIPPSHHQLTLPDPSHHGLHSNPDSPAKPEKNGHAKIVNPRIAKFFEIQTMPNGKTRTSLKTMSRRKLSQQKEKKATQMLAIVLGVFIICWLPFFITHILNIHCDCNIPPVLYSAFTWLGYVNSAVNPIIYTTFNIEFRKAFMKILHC

Biological target: D(2) dopamine receptor (Rattus norvegicus, UniProt P61169)
Test: Displacement of [3H]raclopride from rat dopamine D2 receptor

Structure (SMILES): CN1CCc2cccc3c2[C@H]1Cc1ccc(O)c(O)c1-3 [APOMORPHINE]
- Ki: 13 nM
